Laboratory results reported in patent US8440641B2, “Phthalocyanine salt formulations” (Case Western Reserve University, priority 2009, dated 2013).

Experiments:
[1] = Qualitative solubility in representative organic solvents; assay type: physicochemical
[2] = Salt concentration in polar and nonpolar solvents (Table 2); assay type: physicochemical

Structure (SMILES): CN(C)CCC[Si](C)(C)O[Si-2]123(O)n4c5c6ccccc6c4N=C4c6ccccc6C(=[N+]41)N=c1c4ccccc4c(n12)=NC1=[N+]3C(=N5)c2ccccc21.O=c1[nH]cnc2c1ncn2C1OC(COP(=O)(O)O)C(O)C1O [Compound 25, [HOSiPcOSi(CH3)2(CH2)3NH(CH3)2]^+[C4H3N4OC4H6O3CH2OPO3H]^−]
- solubility in CH2Cl2 ([1]; CH2Cl2, qualitative): soluble
- solubility in dimethylformamide ([1]; dimethylformamide, qualitative): soluble
- solubility in ethanol ([1]; ethanol, qualitative): soluble
- solubility in hexanes ([1]; hexanes, qualitative): insoluble
- solubility in toluene ([1]; toluene, qualitative): moderately soluble
- salt concentration, […] aqueous Tween 80 ([2]; […] aqueous Tween 80): 0.274 mM
- solubility in aqueous solution ([2]; aqueous solution, in words): show solubility
- salt concentration, hexanes ([2]; hexanes): 0.000 mM
- solubility in hexanes and mineral oil ([2]; hexanes, mineral oil (Nujol), in words): little
- salt concentration, mineral oil ([2]; mineral oil): 0.002 mM
